One compound from patent US20230174988A1, “METHODS FOR INDUCING BILE ACID SULFOTRANSFERASE SULT2A FOR TREATING METABOLIC DISORDERS” (priority 2020, published 2023) can be followed below.

The term EC50 denotes the concentration that produces a half-maximal response. The low end stands for a more potent agent, the high end for a less potent agent.

In this test the target is T1, TGR5 (Homo sapiens, UniProt Q8TDU6).
T1 sequence (Q8TDU6 1-330): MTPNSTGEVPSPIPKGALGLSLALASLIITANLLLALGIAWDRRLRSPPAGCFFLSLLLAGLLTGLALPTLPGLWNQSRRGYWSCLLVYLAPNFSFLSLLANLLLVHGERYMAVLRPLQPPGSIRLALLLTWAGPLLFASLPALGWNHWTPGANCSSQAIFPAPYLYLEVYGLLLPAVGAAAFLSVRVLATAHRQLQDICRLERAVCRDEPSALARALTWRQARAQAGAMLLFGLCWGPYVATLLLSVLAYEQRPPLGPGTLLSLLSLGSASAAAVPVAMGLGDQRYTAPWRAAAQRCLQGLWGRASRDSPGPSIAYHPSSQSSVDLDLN
In words: TGR5 activation in L-cells, dose response curve.

Compound `C[C@H](CCC(=O)O)[C@H]1CC[C@H]2[C@@H]3[C@H](OS(=O)(=O)O)C[C@@H]4C[C@H](O)CC[C@]4(C)[C@H]3C[C@H](O)[C@]12C` [CA7S, cholic acid 7-sulfate] registered an EC50 of 13 nM.
